Experimental data published in ChEMBL document CHEMBL5727164, “Bicyclic-fused heteroaryl or aryl compounds” (2019).

By UniProt entry, the sequences of proteins in these tests, tags left out.
UniProt Q9NWZ3, whole entry: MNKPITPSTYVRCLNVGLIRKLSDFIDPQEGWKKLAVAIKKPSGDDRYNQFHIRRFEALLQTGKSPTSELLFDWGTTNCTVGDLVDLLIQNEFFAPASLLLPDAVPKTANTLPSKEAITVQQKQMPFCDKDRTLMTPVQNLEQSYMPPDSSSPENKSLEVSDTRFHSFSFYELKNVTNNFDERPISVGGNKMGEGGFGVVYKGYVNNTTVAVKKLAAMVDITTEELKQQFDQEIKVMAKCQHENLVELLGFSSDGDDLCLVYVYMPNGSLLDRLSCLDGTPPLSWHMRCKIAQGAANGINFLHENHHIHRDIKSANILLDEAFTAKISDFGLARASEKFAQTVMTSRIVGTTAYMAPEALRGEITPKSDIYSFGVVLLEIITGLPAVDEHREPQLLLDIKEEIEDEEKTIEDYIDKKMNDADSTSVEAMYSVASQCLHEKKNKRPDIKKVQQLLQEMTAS

Target: Interleukin-1 receptor-associated kinase 4 (Homo sapiens, UniProt Q9NWZ3)

| Structure (SMILES) | IC50 [nM] |
| --- | --- |
| COc1cc2c(OC[C@H]3NC(=O)[C@@]4(F)C3[C@H]4C)nccc2cc1C(N)=O (stereo in doubt) | 10 |
| COc1cc2c(OC[C@@H]3NC(=O)[C@H](F)[C@@H]3C)nccc2cc1C(N)=O | 34 |
